{"source": "patent US12397036B2", "about": "“Peptide exchange protein” (Cambridge Enterprise Limited, priority 2018, dated 2025)", "molecules": {"B1": {"name": "TAPBPR-Her2-scFv: recombinant TAPBPR fused to a scFv specific for Her2; SEQ ID NO: 8 (protein)", "chain": "MGTQEGWCLLLCLALSGAAETKPHPAEGQWRAVDVVLDCFLVKDGAHRGALASSEDRARASLVLKQVPVLDDGSLEDFTDFQGGTLAQDDPPIIFEASVDLVQIPQAEALLHADCSGKEVTCEISRYFLQMTETTVKTAAWFMANVQVSGGGPSISLVMKTPRVAKNEVLWHPTLNLPLSPQGTVRTAVEFQVMTQTQSLSFLLGSSASLDCGFSMAPGLDLISVEWRLQHKGRGQLVYSWTAGQGQAVRKGATLEPAQLGMARDASLTLPGLTIQDEGTYICQITTSLYRAQQIIQLNIQASPKVRLSLANEALLPTLICDIAGYYPLDVVVTWTREELGGSPAQVSGASFSSLRQSVAGTYSISSSLTAEPGSAGATYTCQVTHISLEEPLGASTQVVPPERRHVGGGGSGGGGSGGGGSTSADLGSRAMAQVQLVQSGAEVKKPGESLKISCKGSGYSFTSYWIAWVRQMPGKGLEYMGLIYPGDSDTKYSPSFQGQVTISVDKSVSTAYLQWSSLKPSDSAVYFCARHDVGYCSSSNCAKWPEYFQHWGQGTLVTVSSGGGGSGGGGSGGGGSQSVLTQPPSVSAAPGQKVTISCSGSSSNIGNNYVSWYQQLPGTAPKLLIYDHTNRPAGVPDRFSGSKSGTSASLAISGFRSEDEADYYCASWDYTLSGWVFGGGTKLTVLGAAAGGGGS", "modifications": "TAPBPR-Her2scFv"}}, "key": {"HLA-A2": {"molecular_target": "T1, HLA-A2 (Homo sapiens, UniProt P04439, D140Y/D185E/D98H/E176V/E277Q/G131W/G231S/I119V/I121R/I166T/I218V/L300P/L318F/N151K/N90K/P208A/P217A/Q86G/Q94H/R138H/R169H/T345S)", "T1 construct": "expressed in transfected cells; host or cells: HeLaM-HLA-ABC-KO", "assay": "NLV* and YLL* viral peptide loading on HeLaM-ABC^KO cells -/+ HLA-A2", "type": "cell-based"}, "[1]": {"molecular_target": "T2, HLA-A2 on SKBR3 and MCF-7 cells (Homo sapiens, UniProt P04439, D140Y/D185E/D98H/E176V/E277Q/G131W/G231S/I119V/I121R/I166T/I218V/L300P/L318F/N151K/N90K/P208A/P217A/Q86G/Q94H/R138H/R169H/T345S)", "T2 construct": "endogenous in cells; host or cells: SKBR3 and MCF-7", "assay": "YLL* peptide loading on breast cancer cell lines", "type": "cell-based", "settings": "100 nM protein"}, "Her2": {"molecular_target": "T3, Her2 (Homo sapiens, UniProt P04626)", "T3 construct": "HeLaM cells which naturally express Her2; endogenous in cells; host or cells: HeLaM, HeLaM+Her2 (over-expressing), HeLaM-Her2-KO (negative control)", "assay": "Binding of recombinant TAPBPR proteins to HeLaM, HeLaM+Her2 and HeLaM^Her2KO cells"}}}
{"molecule": "B1", "values": [{"measurement": "efficiency of NLV* and YLL* loading relative to soluble TAPBPR", "setting": "HLA-A2", "result": "more efficient at loading these peptides than soluble TAPBPR alone"}, {"measurement": "peptide loading relative to soluble TAPBPR on breast cancer cell lines", "setting": "[1]", "result": "more efficient that soluble TAPBPR"}, {"measurement": "peptide loading relative to soluble TAPBPR on breast cancer cell lines", "setting": "[1]; listed as TAPBPR-her 2 antibody fusion protein", "result": "superior to the soluble TAPBPR protein alone"}, {"measurement": "binding to HeLaM cells which naturally express Her2, compared to soluble TAPBPR alone", "setting": "Her2", "result": "increased binding"}, {"measurement": "binding to Her2-deficient HeLaM cells", "setting": "Her2; 100 nM recombinant protein", "result": "no binding at all"}, {"measurement": "binding to cells over-expressing Her2", "setting": "Her2; HeLaM+Her2", "result": "Very strong binding"}]}
